This passage reports Ki and pA2 results from ChEMBL document CHEMBL1124523, “Binary antidotes for organophosphate poisoning: aprophen analogues that are both antimuscarinics and carbamates” (1989).

Amino acid sequences for entries named in this document (tags omitted). Residues count along the entry.
UniProt Q8WMX0, 1-139: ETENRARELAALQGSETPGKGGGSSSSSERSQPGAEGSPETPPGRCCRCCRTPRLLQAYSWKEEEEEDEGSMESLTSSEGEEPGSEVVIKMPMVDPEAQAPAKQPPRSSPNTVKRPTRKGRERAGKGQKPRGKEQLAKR
UniProt P10980, whole entry, looked up: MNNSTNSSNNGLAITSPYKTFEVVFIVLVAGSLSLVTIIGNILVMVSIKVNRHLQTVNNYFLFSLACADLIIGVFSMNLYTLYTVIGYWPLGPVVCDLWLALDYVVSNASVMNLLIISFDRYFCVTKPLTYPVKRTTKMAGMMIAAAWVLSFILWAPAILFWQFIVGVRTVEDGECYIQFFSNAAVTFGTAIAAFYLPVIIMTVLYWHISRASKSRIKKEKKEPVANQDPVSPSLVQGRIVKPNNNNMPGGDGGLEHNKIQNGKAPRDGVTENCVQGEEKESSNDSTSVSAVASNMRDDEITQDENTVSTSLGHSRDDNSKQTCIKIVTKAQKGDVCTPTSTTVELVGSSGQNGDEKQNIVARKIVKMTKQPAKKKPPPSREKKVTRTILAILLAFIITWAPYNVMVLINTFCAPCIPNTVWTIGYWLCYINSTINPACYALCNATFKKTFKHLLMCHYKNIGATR
UniProt P08172, whole entry, looked up: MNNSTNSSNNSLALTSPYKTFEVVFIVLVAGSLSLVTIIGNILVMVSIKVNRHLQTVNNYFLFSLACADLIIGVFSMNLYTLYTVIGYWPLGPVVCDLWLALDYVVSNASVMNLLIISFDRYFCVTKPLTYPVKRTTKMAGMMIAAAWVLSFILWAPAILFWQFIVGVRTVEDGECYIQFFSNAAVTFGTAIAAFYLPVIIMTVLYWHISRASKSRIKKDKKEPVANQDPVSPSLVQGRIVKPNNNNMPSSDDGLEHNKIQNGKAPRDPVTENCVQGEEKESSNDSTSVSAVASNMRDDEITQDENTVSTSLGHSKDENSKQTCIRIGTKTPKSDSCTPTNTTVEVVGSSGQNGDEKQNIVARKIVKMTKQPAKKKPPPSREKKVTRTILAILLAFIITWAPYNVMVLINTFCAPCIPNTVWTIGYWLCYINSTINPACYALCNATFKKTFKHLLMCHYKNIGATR

In general, Ki refers to the dissociation constant of the complex between target and ligand, obtained from inhibition or displacement. The low end stands for higher affinity, the high end for lower affinity. As a reminder, the pA2 is the negative logarithm of the molar antagonist concentration that doubles the agonist concentration needed for the same response. High values mean higher antagonist potency, low ones lower antagonist potency.

For assay [1], the target named is T1, Muscarinic acetylcholine receptor M1 (Bos taurus, UniProt Q8WMX0). Put plainly: Inhibition of [3H]NMS binding to cerebral cortex membranes which contain predominantly the Muscarinic acetylcholine receptor M1 subtypes.
Assay [2] has as its target T2, Muscarinic acetylcholine receptor M2 (Rattus norvegicus, UniProt P10980). Put plainly: Inhibition of carbachol-induced release of alpha-amylase from pancreatic acinar cells from that of rat ileum contained the M2 receptor subtypes.
In assay [3] the target is T3, Muscarinic acetylcholine receptor M2 (Homo sapiens, UniProt P08172). Put plainly: Antimuscarinic activity on the acetylcholine-induced inhibition of contraction of guinea pig ileum which has M2 muscarinic receptor subtype.
Assay [4] deals with T3, Muscarinic acetylcholine receptor M2. Put plainly: Antimuscarinic activity on the acetylcholine-induced inhibition of contraction of guinea pig ileum which has Muscarinic acetylcholine receptor M2 subtype.
The target in assay [5] is T2, Muscarinic acetylcholine receptor M2. As to the kind of experiment: Binding affinity was determined from the inhibition of contraction of guinea pig ileum which has Muscarinic acetylcholine receptor M2 subtype.
The target in assay [6] is T1, Muscarinic acetylcholine receptor M1. Put plainly: Inhibition of [3H]NMS binding to cerebral cortex membranes which contain predominantly the Muscarinic acetylcholine receptor M1 subtypes; marginal active.
Assay [7] concerns the target T2, Muscarinic acetylcholine receptor M2. As to the kind of experiment: Inhibition of carbachol-induced release of alpha-amylase from pancreatic acinar cells from that of rat ileum contained the M2 receptor subtypes; NA is not active.

Turning to `CCN(CC)CCOC(=O)C(C)(c1ccc(O)cc1)c1ccc(OC(=O)N(C)C)cc1` (stereo not drawn), the figures for the Ki in assay [1] and in assay [2] were 3400 nM and 2400 nM, respectively. In assay [3], this molecule came in with a pA2 of 5.5.
On to `CCN(CC)CCOC(=O)C(C)(c1ccccc1)c1ccc(OC(=O)N(C)C)cc1` (stereo not drawn), for which the Ki worked out at 150 nM in assay [1] and 42 nM in assay [5]. For the same molecule, in assay [4], the pA2 amounted to 7.1.
For the molecule `CCN(CC)CCOC(=O)C(C)(c1ccccc1)c1ccc(OC(=O)NC)cc1` (stereo not drawn), the Ki in assay [1] worked out at 26 nM; in assay [5], 2 nM. This molecule also had a pA2 in assay [4] of 7.3.
With `CCN(CC)CCOC(=O)C(C)(c1ccc(OC(=O)N(C)C)cc1)c1ccc(OC(=O)N(C)C)cc1`, the Ki entry in assay [6] is on record as “Partially active”; in assay [7] it was “Not Active”.
As for `CCN(CC)CCOC(=O)C(C)(c1ccccc1)c1ccc(O)cc1` (stereo not drawn), the Ki in assay [1] is 100 nM; in assay [2], 5.6 nM. In assay [3], this molecule showed a pA2 of 7.2.
As for `CCN(CC)CCOC(=O)C(C)(c1ccccc1)c1ccccc1`, the Ki in assay [2] is 1.7 nM. This lies in the single-digit nanomolar range.
In the case of `CCN(CC)CCOC(=O)C(C)(c1ccc(O)cc1)c1ccc(O)cc1`, the Ki was 2100 nM in assay [1] and 4900 nM in assay [2]. Also, the pA2 in assay [3] was determined as 5.7.
